Antibody variant affinities, Ab-14 heavy chain, assay B

Values reported by Li et al. 2023, doi:10.1038/s41467-023-39022-2 (FLAb copy).

Antigen: PDVDLGDISGINAS, a 14-residue peptide of the SARS-CoV-2 spike HR2 region.

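Designed CDR sequences, proposed from the first random library and measured here. Their group label is 14H_En_HC (En: ensemble of fine-tuned language models; HC: hill climbing; a sequence that several methods proposed may carry one label only). AlphaSeq pools MATa yeast showing the antibodies with MATalpha yeast showing the peptide. Binding brings cells together so that they mate, and sequencing counts the barcode pairs among the diploids. Each replicate has its own calibration line, from reference interactions of the BCL2 family. The assay was run in six technical replicates.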

Parent: Ab-14, a human scFv built as VH, a 15-residue (Gly4Ser)3 linker, VL. Only the CDRs of the heavy chain vary.
VH: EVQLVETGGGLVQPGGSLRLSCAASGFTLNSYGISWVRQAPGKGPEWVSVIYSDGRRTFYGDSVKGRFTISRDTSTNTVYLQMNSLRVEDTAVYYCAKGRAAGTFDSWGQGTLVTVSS
VL: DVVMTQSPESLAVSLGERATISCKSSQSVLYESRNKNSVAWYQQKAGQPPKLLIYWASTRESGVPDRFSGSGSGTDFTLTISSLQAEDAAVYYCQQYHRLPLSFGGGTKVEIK

The parent's heavy chain CDRs are GFTLNSYGIS, VIYSDGRRTFYGDSVK, GRAAGTFDS; each variant's own CDRs replace them letter for letter.
Numbers give log10(Kd / nM), so 0 is 1 nM and 3 is 1 µM. Smaller is tighter.
"nd" marks a missing value. The strain was present, yet no cells mated with the target were sequenced in that replicate, which points to weak or no binding.
Background: pairings of all heavy chain designs with three empty control strains gave a value in 1% of cases (median 2.08, 5th percentile 0.84). Values in that range, when seen in few replicates, are hard to tell from nonspecific mating. For each scFv, signals with the empty controls are counted beside the result, with their mean in brackets.
The authors averaged sequences with at least three values out of six and counted those with two or fewer as poor binders.
The range of this assay differs from that of the first round, and the authors advise against merging the two.

| CDR-H1 | CDR-H2 | CDR-H3 | log10 Kd (nM) by replicate | signal with controls |
|---|---|---|---|---|
| GFDLNEYGIS | VIYADGRRTFYSDSVK | GQTGGTFDI | -0.30 / 0.41 / 0.20 / -0.08 / -0.42 / 0.15 | 0 of 18 |
| GFDLNEYGIS | VIYADGRRTFYLDSVK | GESAGTFDQ | 0.27 / -0.11 / -0.29 / -0.10 / -0.29 / -0.24 | 0 of 18 |
| GFDLNEYGIS | VIYADGRRTFYTDSVK | GNTAGTFLV | -0.17 / -0.39 / -0.58 / -0.41 / -0.49 / 0.05 | 2 of 18 (2.55) |
| GFDLNEYGIS | VIYADGRRTAYADSVK | GEQAGTFDS | nd / -0.02 / nd / nd / -0.32 / nd | 0 of 18 |
| GFDLNEYGIS | VIYADGRRTFYADDVK | GEVAGTFNS | -0.45 / -0.48 / -0.64 / -0.91 / -0.54 / -0.67 | 1 of 18 (1.97) |
| GFDINEYGIS | VIYADGRRTAYADSVK | GEAAGTFDI | -0.08 / -0.13 / -0.60 / -0.68 / -0.25 / -0.07 | 0 of 18 |
| GFDLNEYGIS | VIYADGRRTQYIDSVK | GNQAGTFDS | -0.14 / -0.14 / -0.49 / 0.23 / 0.88 / -0.40 | 0 of 18 |
| GFNLNEYGIS | VIYADGRRTFYADSVK | GGWAGTFDV | -0.04 / -0.38 / -0.19 / -0.40 / -0.48 / 0.47 | 0 of 18 |
| GFDLSEYGIS | VIYADGRRTFYTDSVK | GEVAGTFDV | -0.33 / -0.42 / -0.48 / -0.64 / -0.67 / -0.49 | 0 of 18 |
| GFDLNEYGIS | VIYADGTRTFYADSVK | GQLAGTFDI | 0.05 / 0.22 / -0.10 / -0.27 / 0.14 / -0.16 | 0 of 18 |
| GFNLNEYGIS | VIYADGRRTFYSDSVK | GEVGGTFDV | -0.02 / nd / 1.30 / -0.09 / 0.75 / 0.91 | 0 of 18 |
| GFDLNEYGIS | VIYADGLRTSYADSVK | GQEAGTFDI | -0.58 / -0.50 / -0.42 / -0.69 / -0.56 / -0.41 | 0 of 18 |
| GFNLNEYGIS | VIYADGKRTFYADSVK | GGAAGTFDV | -0.59 / -0.35 / -0.76 / -0.34 / -0.90 / -0.57 | 0 of 18 |
| GFDLNEYGIS | VIYADGQRTFYADSVK | GSEAGTFNM | -0.45 / -0.20 / -0.51 / -0.36 / -0.40 / -0.67 | 0 of 18 |
| GFDLDEYGIS | VIYADGRRTAYADSVK | GEAAGTFDT | -0.30 / -0.01 / 0.19 / -0.02 / -0.16 / 0.11 | 0 of 18 |
| GFDLNEYGIS | VIYADGKRTFYADSVK | GQAAGTFDT | -0.43 / 0.35 / -0.94 / -0.26 / -0.77 / -0.65 | 0 of 18 |
| GFDLNEYGIS | VIYADGRRTYYADSVK | GNVAGTFDS | -0.39 / -0.11 / -0.69 / -0.44 / -0.75 / -0.43 | 0 of 18 |
| GFDLNEYGIS | VIYADGRRTFYIDSVK | GEVAGTFDM | -0.03 / -0.29 / -0.64 / -0.28 / -0.63 / 0.06 | 0 of 18 |
| GFNLDEYGIS | VIYADGRRTFYQDSVK | GEVAGTFDM | -0.56 / -0.36 / -0.61 / -0.68 / -0.61 / -0.36 | 0 of 18 |
| GFDLNEYGIS | VIYADGRRTAYIDSVK | GEVAGTFDI | -0.49 / -0.62 / -0.73 / -0.47 / -0.61 / -0.43 | 1 of 18 (3.48) |
| GFDLNEYGIS | VIYADGQRTFYADSVK | GNNAGTFIS | nd / 2.31 / nd / 3.12 / 1.79 / 2.08 | 1 of 18 (3.55) |
| GFDLNEYGIS | VIYADGRRTFYSDSVK | GQNAGTFDE | 0.15 / -0.19 / -0.68 / -0.23 / 0.50 / -0.31 | 0 of 18 |
| GFDLNEYGIS | VIYADGMRTQYIDSVK | GEQAGTFDV | nd / 1.29 / nd / 0.25 / nd / 0.01 | 0 of 18 |
| GFDLNEYGIS | VIYADGRRTFYADNVK | GENAGTFIV | nd / nd / nd / nd / nd / nd | 0 of 18 |
| GFDLDEYGIS | VIYADGMRTFYADSVK | GNIAGTFLI | -0.36 / -0.42 / -0.25 / -0.21 / -0.17 / -0.05 | 0 of 18 |
| GFDLNEYGIS | VIYADGRRTFYADSVK | GQVAGTFDL | -0.36 / -1.04 / -0.84 / -1.30 / -1.17 / -0.82 | 0 of 18 |
| GFDLESYGIS | VIYADGRRTFYSDSVK | GGNAGTFDI | -0.15 / -0.51 / -0.25 / -0.66 / -0.74 / 0.21 | 0 of 18 |
| GFDLNEYGIS | VIYADGMRTFYTDSVK | GEFAGTFDT | -0.27 / 0.32 / -0.37 / -0.13 / -0.09 / 0.12 | 0 of 18 |
| GFDLNEYGIS | VIYADGRRTFYADSVK | GNQAGTFNV | -0.75 / -0.34 / -0.39 / -0.75 / -0.62 / -0.02 | 0 of 18 |
| GFDLESYGIS | VIYADGQRTAYADSVK | GNVAGTFDS | 0.53 / 0.31 / 0.48 / -0.33 / 0.55 / 0.57 | 1 of 18 (2.34) |
| GFDLNEYGIS | VIYADGRRTFYADSVK | GKVAGTFNS | -0.02 / -0.09 / -0.49 / 0.12 / -0.07 / -0.07 | 0 of 18 |
| GFDLDEYGIS | VIYADGMRTFYTDSVK | GELAGTFDA | 0.07 / 0.01 / -0.18 / 0.02 / 0.09 / 0.05 | 0 of 18 |

The closing 5 entries, repeated:

CDR-H1,CDR-H2,CDR-H3,log10 Kd (nM) by replicate,signal with controls
GFDLNEYGIS,VIYADGMRTFYTDSVK,GEFAGTFDT,-0.27 / 0.32 / -0.37 / -0.13 / -0.09 / 0.12,0 of 18
GFDLNEYGIS,VIYADGRRTFYADSVK,GNQAGTFNV,-0.75 / -0.34 / -0.39 / -0.75 / -0.62 / -0.02,0 of 18
GFDLESYGIS,VIYADGQRTAYADSVK,GNVAGTFDS,0.53 / 0.31 / 0.48 / -0.33 / 0.55 / 0.57,1 of 18 (2.34)
GFDLNEYGIS,VIYADGRRTFYADSVK,GKVAGTFNS,-0.02 / -0.09 / -0.49 / 0.12 / -0.07 / -0.07,0 of 18
GFDLDEYGIS,VIYADGMRTFYTDSVK,GELAGTFDA,0.07 / 0.01 / -0.18 / 0.02 / 0.09 / 0.05,0 of 18